UUG fidelity = alters start codon recognition fidelity in yeast | S. cerevisiae UUG-firefly luciferase reporter, luminescence/redox ratio | activity score, % at 18.7 µM | 350,000 compounds, 0.13% hits | AID 602363;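 active = replicate mean at a twofold rise or more, about +100% in these data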;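 note: firefly luciferase made from a UUG start codon reports start codon fidelity; reporter light over untreated wells divided by growth signal over untreated wells; some hits fall short of that in this replicate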
esBAF inh = inhibitors of esBAF chromatin remodeling in mouse ES cells; Bmi1-luciferase knock-in reporter, 24 h; 100% = twice the neutral-well signal; reporter increase, % at 12.5 µM; 350,000 compounds, 2% hits; in the data active = activation above about 40%;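 also: a rise in the Bmi1 reporter signal indicates esBAF inhibition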
C2C12 statin = protects C2C12 myotubes from simvastatin toxicity. ATP luminescence, 48 h; scaled: DMSO 0, geranylgeraniol control 100. rescue of ATP level, % at 7.49 µM. 330,000 compounds, 0.78% hits. AID 602340;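 active = mean ATP rescue above about 67%, or every replicate alone reaching that limit, limit read from the data, passing the limit was not always enough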;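 also: myotubes were challenged with 10 µM simvastatin during compound exposure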
PglD inh = inhibitors of Campylobacter jejuni PglD acetyltransferase; purified PglD enzyme, DTNB colorimetric CoA detection; inhibition, % at 12.5 µM; 360,000 compounds, 0.098% hits; in the data active = inhibition above about 16%, passing the limit was not always enough
PGC1a acetyl inh = modulators of PGC1a acetylation; AID 651687; 350,000 compounds, 0.17% hits; U2OS PGC1a acetylation, AlphaScreen anti-acetyl-lysine; with virally co-expressed GCN5 acetyltransferase; inhibition, % at 15.6 µM;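 active = every replicate shows inhibition of at least 40%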
E-sel inducer = E-selectin induction on HUVECs; activation, % at 7.58 µM; P16581; 260,000 compounds, 0.37% hits; HUVEC E-selectin immunofluorescence imaging; normalized: neutral wells 0, TNF-alpha wells 100; AID 686992;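 active = mean E-selectin-positive cell signal at least 10% of the positive control, reached in at least 60% of replicates, without over 20% cell loss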
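System: HUVEC, human umbilical vein endothelial cells; quantity: 3,000 cells/well; buffer or medium: EGM-2 medium, gelatin-coated wells; dosing: single-point compound dose; detection: immunofluorescence imaging; evaluation: % PE-positive cells; benchmarks: TNF-alpha, DMSO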
Each line names hits and unclear results; the compound was inactive in the other large screens. Sampled rows, rich in hits. Any-hit rate of the full collection: about 2.8%.

C[C@H](CO)N1C[C@H](C)[C@H](CN(C)C(=O)Nc2ccccc2)OCCCC[C@H](C)Oc2ccc(NC(=O)Nc3ccc4c(c3)OCO4)cc2C1=O	esBAF inh 49
C[C@@H]1CCCCO[C@@H](CN(C)C(=O)Nc2ccc3c(c2)OCO3)[C@@H](C)CN([C@@H](C)CO)C(=O)c2cc(NC(=O)Nc3ccccc3)ccc2O1	none (no result: C2C12 statin, E-sel inducer)
C[C@H]1CCCCO[C@@H](CN(C)C(=O)Nc2ccccc2)[C@@H](C)CN([C@@H](C)CO)C(=O)c2cc(NC(=O)Nc3ccc4c(c3)OCO4)ccc2O1	esBAF inh 44
CCC(=O)N1CC2(C1)CN(C(=O)CN1CCOCC1)[C@@H](CO)c1c2c2ccc(OC)cc2n1C	none (no result: UUG fidelity, esBAF inh, C2C12 statin, PglD inh)
CCOc1ccccc1C(=O)Nc1cccc(-c2ccc(N3CCOCC3)nn2)c1	esBAF inh 63 (no result: E-sel inducer)
COc1cccc(C(=O)Nc2cccc(-c3ccc(N4CCOCC4)nn3)c2)c1OC	none (no result: PGC1a acetyl inh, E-sel inducer)
COc1cccc(C(=O)Nc2cccc(-c3ccc(N4CCOCC4)nn3)c2)c1	esBAF inh 67 (no result: UUG fidelity, PglD inh, PGC1a acetyl inh, E-sel inducer)
CCC(=O)Nc1cccc(-c2ccc(N3CCN(C)CC3)nn2)c1	esBAF inh 41 (no result: E-sel inducer)
COc1ccc(C(=O)Nc2cccc(-c3ccc(N4CCOCC4)nn3)c2)cc1OC	none
CCOc1ccc(C(=O)Nc2cccc(-c3ccc(N4CCOCC4)nn3)c2)cc1OCC	esBAF inh 64 (no result: E-sel inducer)
O=c1oc2ccccc2c(Nc2ccc(O)cc2)c1[N+](=O)[O-]	C2C12 statin 133 (no result: E-sel inducer)
COC(=O)c1[nH]c2cc(C)ccc2c1NC(=O)CN1CCN(c2ccccc2OC)CC1	C2C12 statin 86 (no result: E-sel inducer)
C[C@@H]1CCCCO[C@H](CN(C)C(=O)Nc2cccc3ccccc23)[C@H](C)CN([C@H](C)CO)C(=O)c2cc(NS(=O)(=O)c3ccc(Cl)cc3)ccc2O1	none (no result: E-sel inducer)
C[C@H]1CCCCO[C@H](CN(C)C(=O)Nc2cccc3ccccc23)[C@@H](C)CN([C@@H](C)CO)C(=O)c2cc(NS(=O)(=O)c3cccs3)ccc2O1	none (no result: PGC1a acetyl inh)
C[C@@H]1CCCCO[C@@H](CN(C)C(=O)Nc2cccc3ccccc23)[C@@H](C)CN([C@H](C)CO)C(=O)c2cc(NS(=O)(=O)c3ccc(Cl)cc3)ccc2O1	C2C12 statin 94 (no result: E-sel inducer)
C[C@@H]1CCCCO[C@@H](CN(C)C(=O)Nc2cccc3ccccc23)[C@H](C)CN([C@H](C)CO)C(=O)c2cc(NS(=O)(=O)c3cccs3)ccc2O1	C2C12 statin 108 (no result: PGC1a acetyl inh)
C[C@H](CO)N1C[C@H](C)[C@@H](CN(C)Cc2ccc(Oc3ccccc3)cc2)Oc2ccc(NC(=O)Nc3cccc4ccccc34)cc2C1=O	none (no result: C2C12 statin, E-sel inducer)
CCCNC(=O)[C@H]1[C@H](CO)[C@H]2Cn3c(cccc3=O)[C@H]2N1Cc1ccccn1	none (no result: UUG fidelity)
CCCN1[C@@H]2c3ccc(-c4ccncc4)c(=O)n3C[C@@H]2[C@@H](CO)[C@@H]1C(=O)OC	none (no result: UUG fidelity, esBAF inh, C2C12 statin, PglD inh)
Cc1ccc(N=Cc2sc(O)c3ccccc23)c(C)c1	esBAF inh 74 (no result: UUG fidelity, PglD inh)
Cc1ccc(N=Cc2sc(O)c3ccccc23)cc1	esBAF inh 94 (no result: E-sel inducer)
Cc1ccc(N=Cc2cccc(O)c2O)c(C)c1	none
COc1ccc(C(=O)N2C[C@H]3[C@@H](c4ccccc42)[C@H](CO)N3Cc2ccc(Cl)cc2)cc1	none
Cc1nnc(Sc2nc3c(c(=O)n(C)c(=O)n3C)n2Cc2ccccc2Cl)s1	C2C12 statin 118 (no result: E-sel inducer)
C#CCOc1c(/C=C\c2nc(O)c([N+](=O)[O-])c(=O)[nH]2)cc(Br)cc1OC	none
COC(=O)COc1c(/C=C\c2nc(O)c([N+](=O)[O-])c(=O)[nH]2)cccc1OC	PGC1a acetyl inh 55
COc1ccccc1CNC(=O)C[C@@H]1C=C[C@@H](NC(=O)CN(C)C)[C@@H](CO)O1	none (no result: UUG fidelity)
C[C@@H]1CCCCO[C@H](CN(C)S(=O)(=O)c2cccs2)[C@@H](C)CN([C@H](C)CO)C(=O)c2cc(NS(=O)(=O)c3cn(C)cn3)ccc2O1	none (no result: C2C12 statin, E-sel inducer)
Cc1ccc(OCC(O)CNC(=O)c2ccccc2C(=O)O)cc1 (configuration not stated)	C2C12 statin 105 (no result: E-sel inducer)
Cc1cccc(OCC(O)CNC(=O)c2ccccc2C(=O)O)c1 (configuration not stated)	none (no result: E-sel inducer)
O=C(/C=C/Nc1cccc(C(F)(F)F)c1)c1ccc(Oc2ncccn2)cc1	esBAF inh 49 (no result: E-sel inducer)
O=C(Nc1cccc(F)c1)c1ccc2ncsc2c1	none (no result: PGC1a acetyl inh, E-sel inducer)
O=C(Nc1ccc(F)cc1F)c1ccc2ncsc2c1	esBAF inh 67 (no result: PGC1a acetyl inh, E-sel inducer)
O=C(Nc1ccccc1F)c1ccc2ncsc2c1	esBAF inh 57
O=C(Nc1ccncc1)c1cc(F)cc(F)c1	C2C12 statin 72 (no result: E-sel inducer)
O=C(Nc1ccncc1)c1ccc2ncsc2c1	esBAF inh 71
C[C@H]1CCCCO[C@H](CN(C)CC2CCCCC2)[C@@H](C)CN([C@@H](C)CO)C(=O)c2cc(NC(=O)Nc3ccc(F)cc3)ccc2O1	none (no result: C2C12 statin)
CO[C@@H]1CN(C)C(=O)c2cc(NC(C)=O)ccc2OC[C@H](C)N(Cc2cccnc2)C[C@@H]1C	none (no result: UUG fidelity)
O=C(Nc1ccc(Cl)cc1Cl)c1ccc2ncsc2c1	esBAF inh 59
COc1ccc(C(=O)Nc2ccc(F)cc2F)cc1OC	none (no result: UUG fidelity, C2C12 statin, PglD inh, PGC1a acetyl inh, E-sel inducer)
CCCSc1ccc(C(=O)Nc2ccc(F)cc2F)cn1	esBAF inh 46 (no result: E-sel inducer)
CC(C)NC(=O)Nc1ccc2c(c1)C(=O)N([C@H](C)CO)C[C@H](C)[C@@H](CN(C)C(=O)CCCN(C)C)OCCCC[C@H](C)O2	none (no result: UUG fidelity, esBAF inh, C2C12 statin)
CC(C)(C)c1ccc(-n2nc(C#N)c(Cl)cc2=O)cc1	PGC1a acetyl inh 82 (no result: UUG fidelity, esBAF inh, C2C12 statin, PglD inh, E-sel inducer)
COc1ccc(/C=C2\N=C(SC)SC2=O)cc1OC	C2C12 statin 107 (no result: E-sel inducer)
Cc1ccc(OCC(=O)O/N=C(\N)c2ccncc2)c(C)c1	esBAF inh 69
N/C(=N\OC(=O)COc1cc(Cl)c(Cl)cc1Cl)c1ccncc1	E-sel inducer 74 (no result: UUG fidelity, esBAF inh, C2C12 statin, PglD inh, PGC1a acetyl inh)
COc1ccc(/C(N)=N/OC(=O)Cc2cccs2)cc1	esBAF inh 60 (no result: E-sel inducer)
COc1ccc(/C(N)=N/OC(=O)COc2ccccc2Cl)cc1	esBAF inh 49
COc1ccc(CC(=O)O/N=C(\N)c2ccc(OC)cc2)cc1	none (no result: esBAF inh, C2C12 statin, E-sel inducer)
N/C(=N\OC(=O)COc1ccc(Br)cc1Cl)c1ccncc1	none (no result: UUG fidelity, esBAF inh, C2C12 statin, PglD inh, PGC1a acetyl inh)
O=C(Cc1ccccn1)N1CC(=O)N2[C@H](C1)[C@@H](c1ccc(C#CC3CC3)cc1)[C@@H]2CO	none (no result: UUG fidelity, esBAF inh, C2C12 statin, PglD inh)
COCC(=O)Nc1ccc2c(c1)C(=O)N(C)[C@@H]1CC[C@@H](CC(=O)Nc3cn(C)nc3C)O[C@H]1CO2	none
COc1ccc(-c2ccc3c(c2)O[C@@H](CN(C)Cc2cccnc2)[C@H](C)CN([C@H](C)CO)S3(=O)=O)cc1	none
C[C@H](CO)N1C[C@H](C)[C@H](CN(C)Cc2ccccn2)Oc2ncc(-c3ccc(C#N)cc3)cc2C1=O	none
Cc1ccccc1OCC(=O)O/N=C(\N)c1ccncc1	esBAF inh 58
CCC1CCC(NC(=O)Nc2cccc(OC)c2)CC1 (configuration not stated)	esBAF inh 83 (no result: E-sel inducer)
